According to PubChem BioAssay AID1347075 (National Center for Advancing Translational Sciences (NCATS), 2019):
Only a part is listed here, and it is no random draw. Records with an inconclusive call do not appear. Calls of active or inactive are those of the source. Calls come from the whole dose curve; as a rule, active = well fitted cell-killing curve with a large enough effect; inconclusive = small, poorly fitted or top-dose-only effect, or effect the other way; inactive = flat fitted curve, though single readings scatter.

assay: qHTS assay for MDR1-selective chemotherapeutics: Primary screen using the parental adenocarcinoma cell KB-3-1; details: KB-3-1 viability, CellTiter-Glo ATP luminescence, 72 h; at 46.1 µM (top of the series); note: nearly all actives have a fitted effect of over 60% in size
Text: A prime difficulty in effectively treating cancer is the development of cellular resistance to multiple structurally unrelated anticancer drugs, a phenomenon known as multidrug resistance (MDR). […] Numerous strategies to overcome P-gp-mediated MDR have been explored, including the design of drugs that evade recognition and efflux, and development of inhibitors to block efflux and restore drug accumulation. […] An alternative approach is to exploit resistance by identifying drugs that target MDR cells over the non-resistant parental cells from which they were selected. […] The development of MDR1-selective agents represents a new strategy for resolving multidrug resistance, as it remains a long-standing clinical challenge for cancer chemotherapy.
Our goal is to identify compounds that selectively kill P-gp-expressing MDR cells. We will identify MDR1-selective compounds by comparing toxicity of compounds in the screening library against parental, drug-naive (KB-3-1) adenocarcinoma cells as well as their drug-selected MDR sub-line (KB-V1). The differential toxicity of compounds against these two cell lines will be used to identify MDR1-selective compounds, whose cytotoxicity is potentiated, rather than diminished, by P-gp expression. This assay will be utilized to conduct a quantitative high-throughput screen (qHTS) in collaboration with the NIH Chemical Genomics Center to identify selective agents, and probe hits arising from the screen will be validated using secondary assays and characterized through a well-established follow-up research program. This screen was run against the entire NCGC library collection of about 400,000 compounds.
NIH Molecular Libraries Probe Production Network [MLPCN]
NIH Chemical Genomics Center [NCGC]
PI: Michael Gottesman PhD, National Cancer Institute, NIH
Briefly, 5 microL of media containing either KB-3-1 cells (columns 1-2, 4-48) are dispensed into Greiner white, treated solid-bottom 1536-well assay plates (media-only control is added to column 3). Compounds are then transferred via Kalypsys pin tool equipped with 1536-pin array (10 nL slotted pins, V&P Scientific, San Diego, CA). Following addition of compound, the plates are incubated at 37 degrees C for 72 hours. CellTiter-Glo (2.5 µL/well) is then added, and the plates are read in a ViewLux reader (Perkin-Elmer, clear luminescence filter, 1 second exposure, 1x binning) following a 10 minute incubation. All cells are dispensed in DMEM phenol-red free media containing 10% FBS.
Library plates were screened starting from the lowest and proceeding to the highest concentration. Vehicle-only plates, with DMSO being pin-transferred to columns 5-48, will be inserted uniformly at the beginning and the end of each library in order to monitor and record any shifts in the background, which can be affected by reagent dispensers or loss in enzyme activity over time. Screening data will be corrected, normalized, and concentration-effect relationships will be derived by using publicly-available NCGC, NCATS curve fitting algorithms (http://ncgc.nih.gov/pub/openhts).
% is set by controls: 0 for no effect and ±100 for the full control effect.

| SMILES | activity change, negative = cytotoxic |
| --- | --- |
| Cc1cccc(C)c1OP(C)(N)=O (stereo not given) | inactive: -7.69% |
| O=[N+]([O-])c1ccc2c(c1)C=Nc1ccccc1O2 | inactive: -1.34% |
| O=[N+]([O-])c1cc([N+](=O)[O-])c(Nc2cccnc2)c([N+](=O)[O-])c1 | inactive: -17.7% |
| COc1ccc(OP(C)(=O)Nc2cccc(F)c2)cc1 (stereo not given) | inactive: 15.7% |
| Cc1cc(C)cc(OP(C)(N)=O)c1 (stereo not given) | inactive: 0% |
| CCOC(=O)c1ccc(NP(C)(=O)Oc2ccccc2)cc1 (stereo not given) | inactive: 0% |
| Cc1ccc(NP(C)(=O)Oc2ccccc2)c(C)c1 (stereo not given) | inactive: -3.9% |
| COc1ccccc1OP(C)(=O)Nc1ccc(C)cc1 (stereo not given) | inactive: 11.1% |
| CCN(CC)CCCOC(=O)C(O)(c1ccccc1)c1ccccc1 | inactive: -11.7% |
| COc1ccccc1-c1ccccn1.O=[N+]([O-])c1cc([N+](=O)[O-])c(O)c([N+](=O)[O-])c1 | inactive: 6.06% |
| Cc1cc(C)cc(OP(C)(=O)Nc2ccc(SC(F)(F)F)cc2)c1 (stereo not given) | inactive: 3.26% |
| CCc1ccc(OP(C)(=O)N2CCN(c3ccc([N+](=O)[O-])cc3)CC2)cc1 (stereo not given) | inactive: -28.3% |
| CP(=O)(NC(=O)Nc1ccccc1)Oc1ccccc1 (stereo not given) | inactive: -1.39% |
| CP(=O)(Oc1ccccc1)OC(c1ccccc1)C(F)(F)F (stereo not given) | inactive: -2.87% |
| CP(=O)(Nc1ccc(SC(F)(F)F)cc1)Oc1ccc(Cl)cc1 (stereo not given) | inactive: -28.2% |
| Cc1cccc(C)c1OP(C)(=O)Nc1ccc(SC(F)(F)F)cc1 (stereo not given) | inactive: 8.83% |
| CP(=O)(Nc1ccccn1)Oc1ccc(Cl)cc1 (stereo not given) | inactive: -5.82% |
| CCOP(C)(=S)SCC(=O)NC(C)C(=O)O (stereo not given) | inactive: 23.6% |
| O=[N+]([O-])c1cc([N+](=O)[O-])c(O)c([N+](=O)[O-])c1.c1ccc(Oc2ccncc2)cc1 | inactive: 0.0931% |
| COc1ccccc1OP(C)(=O)Nc1ccccc1 (stereo not given) | inactive: 7.67% |
| CP(=O)(Nc1ccccc1Br)Oc1ccccc1 (stereo not given) | inactive: 9.77% |
| CP(=S)(Nn1cnnc1)Oc1ccccc1 (stereo not given) | inactive: 3.91% |
| O=[N+]([O-])c1cc([N+](=O)[O-])c(Nc2nnnn2CCO)c([N+](=O)[O-])c1 | inactive: 0.267% |
| CC1=C2N=C(C=C3N=C(C(C)=C4[N-][C@@](C)([C@@H]5N=C1[C@](C)(CCC(=O)NC[C@@H](C)OP(=O)([O-])O[C@H]1[C@@H](O)[C@@H](n6cnc7cc(C)c(C)cc76)O[C@@H]1CO)[C@H]5CC(N)=O)[C@@](C)(CC(N)=O)[C@@H]4CCC(N)=O)[C@@](C)(CC(N)=O)[C@@H]3CCC(N)=O)C(C)(C)[C@@H]2CCC(N)=O.[C-]#N.[Co+3] | inactive: -0.283% |
| CP(=O)(Nc1ccc(SC(F)(F)F)cc1)Oc1ccccc1 (stereo not given) | inactive: -11.6% |
| CCCOc1ccc(NP(C)(=O)Oc2ccc(Cl)cc2)cc1 (stereo not given) | inactive: -1.36% |
| COc1ccccc1OP(C)(=O)Nc1c(C)cccc1C (stereo not given) | inactive: -4.56% |
| CN(Cc1cccnc1)C(=O)COc1ccc(Cl)c(Cl)c1.O=[N+]([O-])c1cc([N+](=O)[O-])c(O)c([N+](=O)[O-])c1 | inactive: 0% |

| SMILES | activity change, negative = cytotoxic |
| --- | --- |
| O=[N+]([O-])c1cc([N+](=O)[O-])c(-n2nnc3ccccc32)c([N+](=O)[O-])c1 | inactive: -16.1% |
| Cc1nc2ccc3ccccc3c2s1.O=[N+]([O-])c1cc([N+](=O)[O-])c(O)c([N+](=O)[O-])c1 | inactive: 14.1% |
| Cc1cc(C)cc(OP(C)(=O)Nc2ccc(C)cc2C)c1 (stereo not given) | inactive: 11.3% |
| COc1ccccc1OP(C)(=O)Nc1cccc(Br)c1 (stereo not given) | inactive: -23.7% |
| CP(=O)(Nc1cccc(Br)c1)Oc1ccccc1 (stereo not given) | inactive: -6.56% |
| Cc1cc(C)cc(OP(C)(=O)Nc2ccccn2)c1 (stereo not given) | inactive: 13.7% |
| Cc1ccc(C)c(NP(C)(=O)Oc2ccccc2)c1 (stereo not given) | inactive: -4.46% |
| CC1=NCCc2c1[nH]c1ccccc21.O=[N+]([O-])c1cc([N+](=O)[O-])c(O)c([N+](=O)[O-])c1 | inactive: 9.8% |
| COc1ccc(OP(C)(=O)Nc2ccc(SC(F)(F)F)cc2)cc1 (stereo not given) | inactive: 1.35% |
| CCOC(=O)c1ccc(NP(C)(=O)Oc2ccc(F)cc2)cc1 (stereo not given) | inactive: -3.19% |
| CCCCCOc1ccc(NP(C)(=O)Oc2ccc(Cl)cc2Cl)cc1 (stereo not given) | inactive: 0% |
| CP(=O)(Nc1ccccc1)Oc1ccc(F)cc1 (stereo not given) | inactive: 1.42% |
| CCN(CC)CCCOC(=O)C(O)(c1ccccc1)C1CCCCC1 (stereo not given) | inactive: -0.623% |
| Cc1c([N+](=O)[O-])cc([N+](=O)[O-])c(Br)c1[N+](=O)[O-] | inactive: 6.41% |
| CC(C)c1ccc(OP(C)(=O)Nc2ccc(SC(F)(F)F)cc2)cc1 (stereo not given) | inactive: 17.8% |
| CP(=O)(Nc1ccccc1F)Oc1ccccc1 (stereo not given) | inactive: -7.39% |
| O=C(OCCN1CCN(CCOCc2ccccc2)CC1)C(O)(c1ccccc1)c1ccccc1 | inactive: -0.454% |
| CCOP(C)(=S)SCC(=O)NC(C)(CC)C(=O)O (stereo not given) | inactive: -0.598% |
| CP(=O)(Nc1ccc(SC(F)(F)F)cc1)Oc1ccc(F)cc1 (stereo not given) | inactive: -0.393% |
| O=[N+]([O-])c1cc([N+](=O)[O-])c(C(F)(F)F)c([N+](=O)[O-])c1O | inactive: -13.9% |
| Cc1ccccc1NP(C)(=O)Nc1ccccc1C | inactive: 15.9% |
| CP(=O)(Nc1ccc2c(c1)OCCO2)Oc1ccccc1 (stereo not given) | inactive: -3.47% |
| COc1ccc(NP(C)(=O)Oc2ccccc2OC)cc1 (stereo not given) | inactive: 10.7% |
| CN(C)CCOC(=O)C(O)(c1ccccc1)C1CCCCC1 (stereo not given) | inactive: 8.47% |
| COc1ccc(OP(C)(=O)Nc2cccc(Br)c2)cc1 (stereo not given) | inactive: -0.135% |
| Cc1c(C(c2ccc3c(c2)OCO3)c2c(C)n(C)n(-c3ccccc3)c2=O)c(=O)n(-c2ccccc2)n1C.O=[N+]([O-])c1cc([N+](=O)[O-])c(O)c([N+](=O)[O-])c1 | inactive: -12.2% |
| O=[N+]([O-])c1ccc(OP2(=O)COCCO2)cc1 (stereo not given) | inactive: 5.18% |
